Reference: patent US20160046592A1, “PHARMACEUTICAL COMPOSITION FOR THE TREATMENT OF DIABETES” (Ajinomoto Co., Inc., priority 2013, published 2016)

The chains behind the UniProt entries cited, without tags or fusion partners. Residues count along the entry.
UniProt Q07869, 167-468 limits assumed: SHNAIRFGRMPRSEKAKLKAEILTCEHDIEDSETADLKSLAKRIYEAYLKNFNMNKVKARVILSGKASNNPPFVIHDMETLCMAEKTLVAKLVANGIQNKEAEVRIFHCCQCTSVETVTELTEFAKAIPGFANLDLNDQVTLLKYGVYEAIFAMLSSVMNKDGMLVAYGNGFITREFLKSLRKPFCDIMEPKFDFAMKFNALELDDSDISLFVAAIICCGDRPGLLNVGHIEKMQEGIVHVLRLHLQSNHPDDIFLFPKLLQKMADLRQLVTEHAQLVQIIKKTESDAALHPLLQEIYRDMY
UniProt P13807, whole entry: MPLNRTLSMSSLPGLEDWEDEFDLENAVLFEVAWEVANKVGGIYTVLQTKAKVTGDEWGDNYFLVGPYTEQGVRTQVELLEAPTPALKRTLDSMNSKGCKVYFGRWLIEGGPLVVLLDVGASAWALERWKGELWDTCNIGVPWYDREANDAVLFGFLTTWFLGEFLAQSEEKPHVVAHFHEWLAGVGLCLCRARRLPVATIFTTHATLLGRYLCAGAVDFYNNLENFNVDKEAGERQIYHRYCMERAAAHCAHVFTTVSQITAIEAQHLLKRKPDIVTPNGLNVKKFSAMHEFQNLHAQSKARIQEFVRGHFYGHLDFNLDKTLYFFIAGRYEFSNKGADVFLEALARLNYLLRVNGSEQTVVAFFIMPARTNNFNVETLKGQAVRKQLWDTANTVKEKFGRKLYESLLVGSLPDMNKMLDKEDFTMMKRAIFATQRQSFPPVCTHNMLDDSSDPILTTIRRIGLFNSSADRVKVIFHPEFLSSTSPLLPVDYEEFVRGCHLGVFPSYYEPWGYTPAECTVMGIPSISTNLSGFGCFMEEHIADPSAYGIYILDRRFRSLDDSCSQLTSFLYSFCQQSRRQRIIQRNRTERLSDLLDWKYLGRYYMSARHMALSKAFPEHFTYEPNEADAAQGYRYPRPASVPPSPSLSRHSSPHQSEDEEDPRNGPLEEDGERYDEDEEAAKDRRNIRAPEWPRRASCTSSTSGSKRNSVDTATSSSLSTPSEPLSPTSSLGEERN

Assays:
[1] = test system: Rat skeletal muscle-derived L6 myoblasts (differentiated into myotube cells); experiment: Evaluation of glycogen accumulation in L6; settings: [14C] glycogen from D-[U-C14] glucose, 3 hours incubation, 100% = compound of Example 1 of WO/2011/058154 at 30 μM
Protocol: The glycogen accumulation activity was evaluated in skeletal muscle cells according to the published article (ANALYTICAL BIOCHEMISTRY, Vol. 261: 159-163, 1998) by the following method. Rat skeletal muscle-derived L6 myoblasts (ATCC) were seeded in a 96-well collagen-coated plate (IWAKI, 4860-010) by using a growth medium (10% FBS-containing α-MEM medium (NACALAI TESQUE, INC., 21444-05)) under a condition of 4×10^4 cells/100 μL/well. After culturing under conditions of 37° C. and 5% CO2 overnight, the medium was replaced with a differentiation medium (2% FBS-containing α-MEM medium), followed by culturing for 3 days to differentiate the myoblasts into myotube cells. […] After ethanol remaining on the filter was completely removed by drying, MicroScint40 (PerkinElmer Inc.) was added at 50 μL/well, the amount of [14C] glycogen was measured with TopCountNXT (PerkinElmer Inc.). The activity of each test compound was calculated by the following method. Specifically, the relative activity (%) was calculated as 100×(B−A)/(C−A), where A represents a value (cpm) measured for a well not containing the compound but containing only DMSO, B represents a value measured for a well containing the compound and DMSO, and C represents a value measured for a well containing the compound of Example 1 of WO/2011/058154 at a final concentration of 30 μM. […]

[2] = target: PPAR-α (Homo sapiens, UniProt Q07869); experiment: Measurement of PPAR-α activity (GAL4 luciferase reporter assay in CV-1 cells); settings: 100(A/B): A = maximum PPAR-α activity of test compound at 3, 10, 30 and 100 μM, B = activity of the compound of WO/2011/058154 at 100 μM, 18 to 20 hours
Protocol: The PPAR-α activity was measured according to the published article (THE JOURNAL OF BIOLOGICAL CHEMISTRY Vol. 270, No 0.22: 12953-12956, 1995).
Plasmids used for the PPAR-α activity measurement were constructed as follows. A luciferase expression plasmid (UAS×5-TK-Luc) used was obtained by introducing a sequence in which five yeast GAL4-binding sequences are linked in tandem into a portion upstream of a thymidine kinase promoter of pTAL-Luc (Takara Bio Inc., 6252-1). A PPAR-α receptor expression plasmid (hGR-GAL4-hPPARα) used was obtained by introducing a human GR N-terminal region (1-76aa), a yeast GAL4 DNA-binding region (1-147aa), and a PPARα ligand-binding region (167-468aa) between Not I and Sal I sites of pExchange-1 Core Vector (Invitrogen, 211176).
A reporter assay was conducted by the following method using African green monkey kidney-derived CV-1 cells. The CV-1 cells were seeded in a 96-well plate (Thermo Fisher Scientific K.K., 4938) at 2×10^4 cells/well by using a 10% FBS-containing DMEM (NACALAI TESQUE, INC., 0845874) medium. After culturing under conditions of 37° C. and 5% CO2 for 2 hours, the cells were transfected with the plasmids. […] After the culturing, the luciferase activity was measured with Luminescensor JNR (ATTO) by using Bright-Glo (Promega, E2620).
The fold induction of PPAR-α by each test compound was calculated by the following method. […]

[3] = target: human GYS1 (glycogen synthase) (Homo sapiens, UniProt P13807); experiment: Measurement of glycogen synthase activity; settings: concentration causing 50% increase in relative activity; 100% = compound of Example 1 of WO/2011/058154 at 10 μM; 10 mM Glucose-6-phosphate; 37° C. for 25 minutes (Examples 1 to 61 and 67 to 82) or 20 minutes (Examples 62 to 66); absorbance at 340 nm
Protocol: A human GYS1 expression plasmid (pCDNA3.1(+)-hGYS1) was constructed by the following method. By using a human skeletal muscle cDNA of Human MTC Panel I (Takara Bio Inc., 636742) as a template, a human GYS1 gene was amplified by a PCR method using cloning primers (Forward Primer: ATGCCTTTAAACCGCAC, Reverse Primer: TTAGTTACGCTCCTCGC). By using the amplified human GYS1 sequence as a template, restriction enzyme sequences were added by a PCR method using sub-cloning primers (Forward Primer: […], and Reverse Primer: […]), and then the human GYS1 gene was introduced between Xho I and Xba I sites of pCDNA3.1(+) (Invitrogen, V790-20).
Glycogen synthase was prepared by the following method. […]
The glycogen synthase activity was measured by the following method. […]
Moreover, an enzyme solution containing 50 mM Tris-HCl (pH 8.0), 27 mM DTT (NACALAI TESQUE, INC., 14128-04), 0.2 mg/mL bovine serum albumin, 0.17 mg/mL glycogen synthase, and 1.5 μL pyruvate kinase/lactate dehydrogenase solution (Sigma-Aldrich, P0294) was added at 18 μL/well to prepare reaction solutions. After the reaction solutions were incubated (at 37° C. for 25 minutes for Examples 1 to 61 and 67 to 82 or at 37° C. for 20 minutes for Examples 62 to 66), the absorbance at 340 nm was measured by using Benchmark Plus (Bio-Rad Laboratories, Inc.).
The activity of each test compound was calculated by the following method. […]

O=C(O)[C@@H]1CCCN1C(=O)c1cccc(COc2ccc(-c3ccc(F)cc3F)cc2)c1
EC50 [1]: 14 to 16 µM
Relative fold induction (%) of PPAR α [2]: 100%
EC50 [3]: 0.051 to 0.17 µM
